{"source": "patent US9302977B2", "about": "“Method of making monomethyl fumarate” (XenoPort, Inc., priority 2013, dated 2016)", "origin": "cited, not measured here", "test_system": "amyotrophic lateral sclerosis", "details": "in vivo"}
{"smiles": "Nc1nc2ccc(OC(F)(F)F)cc2s1", "note": "[riluzole]", "values": [{"measurement": "extension of survival in ALS", "result": "about three"}]}
